This passage reports inhibition results from PubChem BioAssay AID1950 (The Scripps Research Institute Molecular Screening Center, 2009).

Broadly, the inhibition is the change of the read-out against control, counted positive when it falls.

The list shows a part of the results, in another mix than the full data. Some results for these compounds are left out of this collection, so the calls shown say nothing about other tests. Calls of active or inactive are those of the source. No stated cut-off is given here; in the data, active means inhibition above about 28%; inactive means the rest.

The assay relates to EBNA-1 (Epstein-Barr virus nuclear antigen 1), Human herpesvirus 4. Put plainly: EBNA-1 DNA-binding inhibitors, primary screen, biochemical, fluorescence polarization (AID 1950). As to conditions: at 14.8 µM, hits give high values. For orientation: In fluorescence polarisation assays a small probe gives low polarisation when free and higher when bound to something large.
In the case of `CC(C)Oc1ccc(C(=O)NCC2(N(C)C)CCCCC2)cc1`, the inhibition is inactive: -10.8%.

As for `CN(C)c1cccc(C(=O)NCC2(N(C)C)CCCCC2)c1`, the inhibition was inactive: 6.2%.

`COc1ccc(Br)c(C(=O)NCC2(N3CCCCC3)CCCCC2)c1`: the inhibition was inactive: 6.7%.

As for `O=C(OC1CN2CCC1CC2)C(CO)(c1ccccc1)c1ccccc1` (centres undefined), the inhibition is inactive: 0.3%.

On to `O=C(NCC1(N2CCCCC2)CCCCC1)c1cccc(Cl)c1`, for which the inhibition is inactive: -6.53%.

On to `COc1cccc(C(=O)NCC2(N3CCCCC3)CCCCC2)c1`, for which the inhibition was inactive: -3.97%.

As to `COc1ccc(Cl)cc1C(=O)NCC1(N(C)C)CCCCC1`, the inhibition was inactive: 1.21%.

Consider `COc1cc(C(=O)NCC2(N(C)C)CCCCC2)c([N+](=O)[O-])cc1OC`, for which the inhibition is inactive: -8.48%.

With `CN(C)C1(CNC(=O)c2ccc(Br)cc2)CCCCC1`, the inhibition is inactive: -3.75%.

On to `COc1ccc(C(=O)NCC2(N(C)C)CCCCC2)cc1`, for which the inhibition is inactive: -5.78%.

Consider `Cc1cc(C(=O)NCC2(N3CCCCC3)CCCCC2)ccc1[N+](=O)[O-]`, for which the inhibition was inactive: 5.65%.

Take `CCN1CCCC(OC(=O)C2(O)c3ccccc3C=Cc3ccccc32)C1` (centres undefined): the inhibition is inactive: 9.23%.

As to `O=C(NCC1(N2CCCCC2)CCCCC1)c1cccc(Br)c1`, the inhibition is inactive: 4.19%.

Regarding `C=CCN1CCN(CCOC(=O)C(O)(c2ccccc2)c2ccccc2)CC1`, the inhibition was inactive: -13.2%.

For `O=C(NCC1(N2CCCCC2)CCCCC1)c1cc(F)c(F)cc1Cl`, the inhibition is inactive: -5.6%.

In the case of `Cc1ccccc1C(=O)NCC1(N2CCCCC2)CCCCC1`, the inhibition was inactive: -4.35%.

As to `CN(C)C1CCCC1OC(=O)C(O)(c1ccccc1)c1ccccc1` (centres undefined), the inhibition was inactive: -1.65%.

`CN(C)c1ccc(C(=O)NCC2(N(C)C)CCCCC2)cc1`: the inhibition is inactive: -3.74%.

Turning to `Cc1ccc(C(=O)NCC2(N3CCCCC3)CCCCC2)cc1`, the inhibition was inactive: -8.77%.

Regarding `CCN(CC)CC(C)C(C)OC(=O)C(O)(c1ccccc1)c1ccccc1` (centres undefined), the inhibition was inactive: -1%.

`COc1cc(SC)ccc1C(=O)NCC1(N(C)C)CCCCC1`: the inhibition was inactive: 7.89%.

Consider `CC(C)N1C(=O)CC2(CCN(CCOC(=O)C(O)(c3ccccc3)c3ccccc3)CC2)C1=O`, for which the inhibition is inactive: 2.12%.

Consider `CN1[C@@H]2CC[C@H]1CC(OC(=O)C(O)(c1ccccc1)c1ccccc1)C2` (some centres undefined), for which the inhibition is inactive: 16.1%.

Turning to `O=C(NCC1(N2CCCCC2)CCCCC1)c1cc([N+](=O)[O-])ccc1Cl`, the inhibition is inactive: -7.4%.
